Values of other authors, collected in patent US7767232B2, “Control of nitric oxide bioactivity by perfluorocarbons” (New York University, priority 2002, dated 2010).

Conditions: Nedospasov et al., 2000; cited from earlier work

In the case of “serum albumin: most abundant transport and depot protein in the circulation”, the “partition coefficient QNO” value is given as roughly 120.
